The NIST ThermoML archive (doi:10.1016/j.jct.2012.09.006)
Numbers after ± are expanded uncertainties.

Legend:
[1] = Crystal; DTA
[2] = Molar enthalpy of transition or fusion; settings: Crystal; DSC

Normal melting temperature [1]: 158.7 ± 0.9 °C
Molar enthalpy of transition or fusion [2]: 24.1 ± 0.64 kJ/mol
SMILES: O=C(O)c1ccccc1O [2-hydroxybenzoic acid]
